In this assay the target is GLP-1 receptor (Homo sapiens, UniProt P43220). Put plainly: Cell activity test in vitro (cAMP detection, GLP-1 HEK293 cells). The note with it: read-out: Human-GLP 1, EC50, HEK293 host cell. Here is the method:
The cells were constructed by Wuxi New Drug Development Co., Ltd. Shanghai.
The compound was formulated with DMSO to a working concentration of 30 μM. In this test, the usage amount of each sample was 5 μL.
The pH was adjusted to 7.4 and the volume was fixed to 25 mL with HBSS 1×.
Preparation of cAMP detection reagent: 250 μL of cAMP-D2 and 250 μL of anti-cAMP cryptate reagent were added to 4 mL of lysis buffer, and mixed gently.
The test compound was diluted 3 times by 10 points with a starting concentration of 30 μM, and the dilutions were completed by Bravo.
The reference compound exenatide was diluted 3 times by 10 points with a starting concentration of 500 nM, and the dilutions were completed by Bravo. […]
The TopSeal-A was removed, and the EnVision reading was performed.

Amino acid sequences for entries named in this document (tags omitted). Residues count along the entry.
UniProt P43220, 24-463 limits assumed: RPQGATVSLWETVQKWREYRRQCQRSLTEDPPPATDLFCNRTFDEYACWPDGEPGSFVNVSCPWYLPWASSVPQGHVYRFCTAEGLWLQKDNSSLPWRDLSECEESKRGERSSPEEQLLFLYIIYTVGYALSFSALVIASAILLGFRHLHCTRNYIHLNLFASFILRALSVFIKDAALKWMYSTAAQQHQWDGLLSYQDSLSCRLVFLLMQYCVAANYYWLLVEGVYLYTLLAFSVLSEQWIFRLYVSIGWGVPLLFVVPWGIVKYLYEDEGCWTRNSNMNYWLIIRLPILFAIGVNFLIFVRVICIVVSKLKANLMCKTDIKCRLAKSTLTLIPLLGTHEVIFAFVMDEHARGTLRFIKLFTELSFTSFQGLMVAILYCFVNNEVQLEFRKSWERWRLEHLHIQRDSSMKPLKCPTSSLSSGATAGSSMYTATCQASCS

Turning to `CC1(c2ccc(Cl)cc2F)Oc2cccc(C3=CCN(Cc4nc5cc(C(=O)O)sc5n4C[C@@H]4CCO4)CC3)c2O1` (some centres unmarked), the EC50 (commonly the concentration at which the effect is half-maximal) is 8.63 nM. The value for `CC1(c2ccc(Cl)cc2F)Oc2cccc(C3=CCN(Cc4nc5sc(C(=O)O)cc5n4C[C@@H]4CCO4)CC3)c2O1` (some centres unmarked) was 1.16 nM.

Values taken from patent US12679851B2, “Methyl-substituted benzobisoxazole compound and use thereof” (TONGHUA DONGBAO PHARMACEUTICAL CO., LTD., priority 2020, dated 2026).
